Values quoted from earlier work as cited in patent US5811405A, “Multiply fucosylated dicarboxylic acids possessing antiadhesive properties” (Hoechst Aktiengesellschaft, priority 1996, dated 1998).

Tests used:
[1] = system: P selectin-dependent lung injuries; details: M. S. Mulligan et al., 1993; cited from earlier work
E selectin = biological target: T1, E selectin (Homo sapiens, UniProt P16581); details: HL-60 and U-937 cells; Dasgupta et al., 5/94; read-out: IC50 for inhibiting adhesion of HL-60 and U-937 cells, E selectin; cited from earlier work
T1 sequence (P16581 22-610): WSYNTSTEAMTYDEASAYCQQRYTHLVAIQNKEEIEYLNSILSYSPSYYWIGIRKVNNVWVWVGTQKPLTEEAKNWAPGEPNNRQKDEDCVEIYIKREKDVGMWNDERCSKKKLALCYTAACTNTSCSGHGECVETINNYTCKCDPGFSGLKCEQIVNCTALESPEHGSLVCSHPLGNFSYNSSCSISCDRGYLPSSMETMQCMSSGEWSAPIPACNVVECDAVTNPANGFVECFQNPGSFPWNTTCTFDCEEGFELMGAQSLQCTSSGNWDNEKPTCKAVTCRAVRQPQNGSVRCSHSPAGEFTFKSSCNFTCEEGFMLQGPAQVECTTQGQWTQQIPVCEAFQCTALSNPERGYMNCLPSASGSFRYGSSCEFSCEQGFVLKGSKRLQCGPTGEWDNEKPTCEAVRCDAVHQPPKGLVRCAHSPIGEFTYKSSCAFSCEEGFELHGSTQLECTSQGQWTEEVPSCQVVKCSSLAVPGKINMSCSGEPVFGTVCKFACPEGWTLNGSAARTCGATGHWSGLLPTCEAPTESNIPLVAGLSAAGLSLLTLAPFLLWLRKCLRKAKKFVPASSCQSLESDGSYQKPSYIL

Substance: sialyl Lewis X [SLeX]
- use in animal experiments, P selectin-dependent lung injuries [1]: used successfully
- IC50 (E selectin): 1200 to 2000 µM
